Ab-14 heavy chain CDR variants: yeast mating affinities

From the AlphaSeq antibody data of Li et al. 2023 (doi:10.1038/s41467-023-39022-2), copy in the FLAb collection.

Binding partner: SARS-CoV-2 spike HR2 peptide, sequence PDVDLGDISGINAS.

Parent: Ab-14, a human scFv built as VH, the linker GGGGSGGGGSGGGGS, VL. Only the CDRs of the heavy chain vary.
VH: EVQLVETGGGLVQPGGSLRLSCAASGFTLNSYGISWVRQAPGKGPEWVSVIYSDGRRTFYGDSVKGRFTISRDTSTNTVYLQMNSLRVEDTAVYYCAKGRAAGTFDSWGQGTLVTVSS
VL: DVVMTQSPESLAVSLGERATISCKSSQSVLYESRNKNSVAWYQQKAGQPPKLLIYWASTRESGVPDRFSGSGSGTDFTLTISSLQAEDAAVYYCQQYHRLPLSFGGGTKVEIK

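Phage display of a naive human antibody library on the peptide gave the parent. These sequences belong to a second round, designed from the earlier measurements on random variants of the parent. Group labels follow the data file (Ctrl: baseline library sampled from a position-specific scoring matrix, with some repeated check sequences; GPLM: also part of the Gaussian process libraries; HC: hill climbing; a sequence that several methods proposed may carry one label only). AlphaSeq pools MATa yeast showing the antibodies with MATalpha yeast showing the peptide. The frequency of each diploid, read from paired DNA barcodes, reflects how well the two displayed proteins bind. A regression on co-assayed BCL2-family reference pairs converts the normalised counts of each replicate to an apparent Kd. Each pool was mated in six replicate cultures.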

Each variant is given by its three heavy chain CDRs, as the data file delimits them; those of the parent are GFTLNSYGIS, VIYSDGRRTFYGDSVK, GRAAGTFDS.
Numbers give log10(Kd / nM), so 0 is 1 nM and 3 is 1 µM. Smaller is tighter.
Averages over replicates are reported, and they cover detected replicates only.
An entry "nd" has no value in the source: the pair was not observed among the diploids in that replicate. This suggests poor binding but is not conclusive.
A sequence measured in both rounds can read differently, since the two assays cover different ranges.
In the paper, a design with two or fewer of six values counts as a poor binder.
A sequence that the file lists under several names has all its replicates listed entry by entry, parted by semicolons.
Background: pairings of all heavy chain designs with three empty control strains gave a value in 1% of cases (median 2.08, 5th percentile 0.84). Values in that range, when seen in few replicates, are hard to tell from nonspecific mating. Also given: how often the same scFv was detected with the empty control strains, with their mean in brackets.

{"CDR-H1": "GFTLNSYGIS", "CDR-H2": "VIYSDGRRTFYGDSVK", "CDR-H3": "GSAIGTFDS", "group": "Ctrl", "replicates, log10 nM": "nd / nd / nd / nd / nd / nd", "mean log10 Kd (nM)": "nd", "signal with controls": "0 of 18"}
{"CDR-H1": "GFTLNSYGIS", "CDR-H2": "VIYSDGRRTFYGDNVK", "CDR-H3": "GTAAGTFDS", "group": "Ctrl", "replicates, log10 nM": "0.87 / -0.02 / 0.69 / 0.13 / 0.41 / 0.38", "mean log10 Kd (nM)": "0.41", "signal with controls": "0 of 18"}
{"CDR-H1": "GFTLNDYGIS", "CDR-H2": "VIYSDGRRTFYGDNVK", "CDR-H3": "GGAACTFDS", "group": "Ctrl", "replicates, log10 nM": "nd / nd / nd / nd / nd / nd", "mean log10 Kd (nM)": "nd", "signal with controls": "1 of 18 (1.43)"}
{"CDR-H1": "GFTLNSYGIS", "CDR-H2": "VIYSDGRRTFYENSVK", "CDR-H3": "GRASGTFDS", "group": "Ctrl", "replicates, log10 nM": "2.77 / 1.76 / nd / nd / nd / 1.89", "mean log10 Kd (nM)": "2.14", "signal with controls": "0 of 18"}
{"CDR-H1": "GFTLNSYGIS", "CDR-H2": "VIYSDGRRTFYGDSVR", "CDR-H3": "GEAAGTFDS", "group": "Ctrl", "replicates, log10 nM": "1.05 / 0.86 / 1.36 / 1.34 / 0.88 / 1.28", "mean log10 Kd (nM)": "1.13", "signal with controls": "1 of 18 (2.06)"}
{"CDR-H1": "GFTLNEYGIS", "CDR-H2": "VIYSDGRRTFYGDSVK", "CDR-H3": "GRKAGTFDS", "group": "Ctrl", "replicates, log10 nM": "2.46 / 2.12 / nd / 2.49 / 1.60 / nd", "mean log10 Kd (nM)": "2.17", "signal with controls": "1 of 18 (1.53)"}
{"CDR-H1": "GFDLNSYGIS", "CDR-H2": "VIYSDGQRTFYGDAVK", "CDR-H3": "GGAACTFDS", "group": "Ctrl", "replicates, log10 nM": "nd / nd / nd / nd / nd / nd", "mean log10 Kd (nM)": "nd", "signal with controls": "0 of 18"}
{"CDR-H1": "GFGLNSYGIS", "CDR-H2": "VIYSDGRRTFYGDSVK", "CDR-H3": "GREAGTFDS", "group": "Ctrl", "replicates, log10 nM": "1.28 / 0.62 / 0.70 / 1.13 / 1.00 / 1.03", "mean log10 Kd (nM)": "0.96", "signal with controls": "0 of 18"}
{"CDR-H1": "TFTLNSYGIS", "CDR-H2": "VIYSDGRRTFYRDSVK", "CDR-H3": "GRAAGRFDL", "group": "Ctrl", "replicates, log10 nM": "nd / nd / nd / 2.29 / nd / nd", "mean log10 Kd (nM)": "2.29", "signal with controls": "0 of 18"}
{"CDR-H1": "GFTLDDYGIS", "CDR-H2": "VIYSDGRRTFYSDAVK", "CDR-H3": "GRAAGTFDS", "group": "Ctrl", "replicates, log10 nM": "0.54 / 0.59 / 0.83 / 0.07 / 0.17 / 1.04", "mean log10 Kd (nM)": "0.54", "signal with controls": "2 of 18 (2.12)"}
{"CDR-H1": "GFTLNKYGIS", "CDR-H2": "VIYSDGRRTFYGDSVK", "CDR-H3": "IDAAGTFES", "group": "Ctrl", "replicates, log10 nM": "nd / nd / nd / nd / nd / nd", "mean log10 Kd (nM)": "nd", "signal with controls": "0 of 18"}
{"CDR-H1": "GFTLNSYGIS", "CDR-H2": "VIYSDGRRTFYGDSVK", "CDR-H3": "VRAYGTFDS", "group": "Ctrl", "replicates, log10 nM": "nd / 1.88 / nd / nd / nd / nd", "mean log10 Kd (nM)": "1.88", "signal with controls": "0 of 18"}
{"CDR-H1": "GFTLDSYGIS", "CDR-H2": "VIYADGRRTFYGDSVK", "CDR-H3": "GRAAGTFLS", "group": "Ctrl+GPLM_HC", "replicates, log10 nM": "nd / nd / nd / 2.68 / 1.86 / nd; 1.74 / 1.74 / 1.75 / nd / 2.14 / 1.74", "mean log10 Kd (nM)": "1.95", "signal with controls": "2 of 36 (2.11)"}
{"CDR-H1": "GFTLNSYGIS", "CDR-H2": "VIYFDGRRTFYGDSVK", "CDR-H3": "TRAAQTFDS", "group": "Ctrl", "replicates, log10 nM": "nd / nd / nd / nd / nd / nd", "mean log10 Kd (nM)": "nd", "signal with controls": "0 of 18"}
{"CDR-H1": "GFHLNSYGIS", "CDR-H2": "VIYSDGRRTFYTDSVK", "CDR-H3": "GMGAGRDDS", "group": "Ctrl", "replicates, log10 nM": "2.00 / nd / nd / nd / nd / nd", "mean log10 Kd (nM)": "2.00", "signal with controls": "0 of 18"}
{"CDR-H1": "GFTLNSYGIS", "CDR-H2": "VMYSDGRRTEYGDSVK", "CDR-H3": "GRVAGTFDK", "group": "Ctrl", "replicates, log10 nM": "0.36 / -0.13 / 0.70 / -0.26 / 1.01 / 0.54", "mean log10 Kd (nM)": "0.37", "signal with controls": "0 of 18"}
{"CDR-H1": "GFSLNSYGIS", "CDR-H2": "VIYSDGRRTFYGDSVK", "CDR-H3": "GRGTGTFDS", "group": "Ctrl", "replicates, log10 nM": "nd / nd / nd / nd / nd / nd", "mean log10 Kd (nM)": "nd", "signal with controls": "0 of 18"}
{"CDR-H1": "GFTLNSYGIS", "CDR-H2": "VIYSDGRRTFYGDSVK", "CDR-H3": "GRRAVTFDS", "group": "Ctrl", "replicates, log10 nM": "nd / nd / nd / nd / nd / nd", "mean log10 Kd (nM)": "nd", "signal with controls": "0 of 18"}
{"CDR-H1": "GFTLNSYGIS", "CDR-H2": "VIYSDGRRTAYGDSVA", "CDR-H3": "GREHGTFDS", "group": "Ctrl", "replicates, log10 nM": "nd / nd / nd / nd / nd / nd", "mean log10 Kd (nM)": "nd", "signal with controls": "0 of 18"}
{"CDR-H1": "GFTLNSYGIS", "CDR-H2": "VIYRDGRRTFYQDSVK", "CDR-H3": "GRAAGTFDS", "group": "Ctrl", "replicates, log10 nM": "nd / nd / nd / nd / nd / nd", "mean log10 Kd (nM)": "nd", "signal with controls": "0 of 18"}
{"CDR-H1": "GFTLELYGIS", "CDR-H2": "VIYSDGRRTFYGDSVK", "CDR-H3": "GRIAGTFDS", "group": "Ctrl", "replicates, log10 nM": "nd / nd / nd / nd / 0.74 / nd", "mean log10 Kd (nM)": "0.74", "signal with controls": "0 of 18"}
{"CDR-H1": "GFTLNSYGIS", "CDR-H2": "VIYSDGRRTMYGDSVK", "CDR-H3": "SEAAGTFDS", "group": "Ctrl", "replicates, log10 nM": "nd / nd / nd / nd / nd / nd", "mean log10 Kd (nM)": "nd", "signal with controls": "0 of 18"}
{"CDR-H1": "GTTLNSYGIS", "CDR-H2": "NIYSDGQRTFYMDSVK", "CDR-H3": "GRAAGTFDS", "group": "Ctrl", "replicates, log10 nM": "nd / nd / nd / nd / nd / nd", "mean log10 Kd (nM)": "nd", "signal with controls": "0 of 18"}
{"CDR-H1": "GFPLNDYGIS", "CDR-H2": "VIYADGRRTFYGDSVK", "CDR-H3": "GKAAGTFDS", "group": "Ctrl", "replicates, log10 nM": "-0.02 / 0.46 / -0.92 / -0.35 / -0.22 / -0.25", "mean log10 Kd (nM)": "-0.22", "signal with controls": "0 of 18"}
{"CDR-H1": "GFTLNSYGIS", "CDR-H2": "VIYADGRRTFYKDSVK", "CDR-H3": "GKAAGVFDS", "group": "Ctrl", "replicates, log10 nM": "0.95 / nd / nd / nd / 0.31 / 1.55", "mean log10 Kd (nM)": "0.93", "signal with controls": "0 of 18"}
{"CDR-H1": "GFSLNSYGIS", "CDR-H2": "VIYADGMRTFYGDSVK", "CDR-H3": "GRMAGTFNS", "group": "Ctrl", "replicates, log10 nM": "0.85 / 0.74 / 0.62 / 0.87 / 0.46 / 1.24", "mean log10 Kd (nM)": "0.80", "signal with controls": "0 of 18"}
{"CDR-H1": "GFTLKSYGIS", "CDR-H2": "VIYSDGRRTFYGDSVK", "CDR-H3": "GRAAGTFDS", "group": "Ctrl", "replicates, log10 nM": "nd / nd / nd / nd / nd / nd", "mean log10 Kd (nM)": "nd", "signal with controls": "0 of 18"}
{"CDR-H1": "GFTFNEYGVS", "CDR-H2": "VIYSDGRRTFYGDSVK", "CDR-H3": "GRGAGTFDS", "group": "Ctrl", "replicates, log10 nM": "nd / nd / nd / nd / nd / nd", "mean log10 Kd (nM)": "nd", "signal with controls": "0 of 18"}
{"CDR-H1": "GFTLNSYGIS", "CDR-H2": "VIYSDGRRTFYGPSVR", "CDR-H3": "GRVAGTFDS", "group": "Ctrl", "replicates, log10 nM": "0.57 / 0.74 / 0.31 / 0.28 / 0.38 / 0.69", "mean log10 Kd (nM)": "0.49", "signal with controls": "0 of 18"}
{"CDR-H1": "GQALNSYGIS", "CDR-H2": "VIYSDGERLFYLDAVK", "CDR-H3": "ARAAGTFDS", "group": "Ctrl", "replicates, log10 nM": "nd / nd / nd / nd / nd / nd", "mean log10 Kd (nM)": "nd", "signal with controls": "0 of 18"}

The last 2 entries again:

{"CDR-H1": "GFTLNSYGIS", "CDR-H2": "VIYSDGRRTFYGPSVR", "CDR-H3": "GRVAGTFDS", "group": "Ctrl", "replicates, log10 nM": "0.57 / 0.74 / 0.31 / 0.28 / 0.38 / 0.69", "mean log10 Kd (nM)": "0.49", "signal with controls": "0 of 18"}
{"CDR-H1": "GQALNSYGIS", "CDR-H2": "VIYSDGERLFYLDAVK", "CDR-H3": "ARAAGTFDS", "group": "Ctrl", "replicates, log10 nM": "nd / nd / nd / nd / nd / nd", "mean log10 Kd (nM)": "nd", "signal with controls": "0 of 18"}